From patent US11357736B2, “Detoxification using nanoparticles” (dated 2022) come the findings set out here.

The chains behind the UniProt entries cited, without tags or fusion partners. Residues count along the entry.
UniProt P21836, 32-574 limits assumed: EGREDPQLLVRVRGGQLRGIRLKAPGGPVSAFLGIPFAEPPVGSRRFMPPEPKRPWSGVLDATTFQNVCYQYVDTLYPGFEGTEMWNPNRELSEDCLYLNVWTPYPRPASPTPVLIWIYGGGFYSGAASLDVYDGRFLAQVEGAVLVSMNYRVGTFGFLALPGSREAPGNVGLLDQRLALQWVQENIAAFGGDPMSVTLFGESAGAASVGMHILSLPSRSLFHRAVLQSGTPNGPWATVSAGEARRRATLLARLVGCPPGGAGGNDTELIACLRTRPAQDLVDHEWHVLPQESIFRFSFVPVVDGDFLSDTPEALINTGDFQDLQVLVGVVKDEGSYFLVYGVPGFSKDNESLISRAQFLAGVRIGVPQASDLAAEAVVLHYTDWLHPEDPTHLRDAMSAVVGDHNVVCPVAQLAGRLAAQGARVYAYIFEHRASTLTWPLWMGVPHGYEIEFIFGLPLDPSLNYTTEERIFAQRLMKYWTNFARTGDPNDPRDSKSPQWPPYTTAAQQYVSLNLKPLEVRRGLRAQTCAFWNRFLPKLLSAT

The subject of data set [1] is mouse model of OP poisoning (intravenous DDVP). In words: In vivo OP detoxification following intravenous DDVP challenge. The note with it: DDVP 10 mg/kg i.v.; within 7 min after injection.
Data set [2] concerns mouse model of OP poisoning (oral DDVP). In words: In vivo OP detoxification following oral administration of DDVP. The note with it: DDVP 150 mg/kg oral; within 11 min after administration.
In the next data set the target is AChE on RBC ghosts (Mus musculus, UniProt P21836). In words: In vitro anti-OP effect: AChE activity on RBC ghosts after incubation with DDVP. The note with it: read-out: DDVP concentration required to inhibit 50% of the AChE activity on the RBC ghosts, 30 min.

Read-outs that look alike come from different tables or passages of the source.

Consider `COP(=O)(OC)OC=C(Cl)Cl`, for which the “mortality rate without any treatment” value in data set [1] turned out to be 100%. Besides, the “mice without any treatment that died” value in data set [2] came out at 90%. Besides, the IC50 at AChE on RBC ghosts (0 mg/mL RBC-NPs) is 45.3 µM; at AChE on RBC ghosts (1 mg/mL RBC-NPs), 195 µM; at AChE on RBC ghosts (4 mg/mL RBC-NPs), 1410 µM.
